# Results taken from PubChem BioAssay (Tox21).
# Sequences of proteins named here, by UniProt entry; tags and fusion partners are left off.
# UniProt Q96RI1, whole entry: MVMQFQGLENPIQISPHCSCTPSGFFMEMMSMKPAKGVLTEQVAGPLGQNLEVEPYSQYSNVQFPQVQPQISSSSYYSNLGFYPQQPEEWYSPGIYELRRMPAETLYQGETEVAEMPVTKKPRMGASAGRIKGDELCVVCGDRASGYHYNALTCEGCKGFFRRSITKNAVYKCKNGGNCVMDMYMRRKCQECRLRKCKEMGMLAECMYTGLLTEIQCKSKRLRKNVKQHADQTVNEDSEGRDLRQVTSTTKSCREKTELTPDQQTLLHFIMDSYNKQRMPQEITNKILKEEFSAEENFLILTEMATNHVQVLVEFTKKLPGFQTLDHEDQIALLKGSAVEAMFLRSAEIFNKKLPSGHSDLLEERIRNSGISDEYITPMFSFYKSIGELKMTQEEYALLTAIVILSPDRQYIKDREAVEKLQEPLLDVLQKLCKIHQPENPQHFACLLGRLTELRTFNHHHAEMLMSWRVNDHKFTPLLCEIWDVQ
# UniProt P11473, whole entry: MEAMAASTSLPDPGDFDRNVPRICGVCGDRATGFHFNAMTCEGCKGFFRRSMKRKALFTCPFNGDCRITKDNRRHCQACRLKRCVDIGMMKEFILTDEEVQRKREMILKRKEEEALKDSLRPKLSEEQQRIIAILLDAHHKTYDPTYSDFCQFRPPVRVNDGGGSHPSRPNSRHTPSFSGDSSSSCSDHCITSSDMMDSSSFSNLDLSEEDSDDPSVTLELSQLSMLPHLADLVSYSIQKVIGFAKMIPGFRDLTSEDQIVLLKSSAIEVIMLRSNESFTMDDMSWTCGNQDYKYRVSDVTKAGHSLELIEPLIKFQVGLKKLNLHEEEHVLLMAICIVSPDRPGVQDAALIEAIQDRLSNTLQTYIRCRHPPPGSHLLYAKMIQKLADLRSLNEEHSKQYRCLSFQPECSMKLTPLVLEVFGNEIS
# Where “and” joins values, the source holds several entries; their conditions need not be identical. Identical values can stand only once. This is a selection; strong and weak results do not stand in their true shares. Results filed as inconclusive are left out. Calls of active or inactive are those of the source. Unless noted, the call rests on the fitted dose curve; in most records, active means well fitted cell-killing curve with a large enough effect in the repeat runs; inconclusive means weak or mixed curves, or effect the other way; inactive means no such curve, though single readings can be large or run the other way.
# Molecular target: Bile acid receptor (Homo sapiens) (UniProt Q96RI1)
# Assay: qHTS assay to identify small molecule antagonists of the farnesoid-X-receptor (FXR) signaling pathway (AID 743217; active means well fitted inhibition curve with a large enough effect in the signal ratio in the repeat runs, not every such curve was filed as active; the % refers to the signal ratio)
# Conditions: HEK293T FXR-UAS-bla, beta-lactamase ratio, CDCA-stimulated, 16 h; at 62.6 µM (top of the series)
# How it was run: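 Screen of the Tox21 10K library in quantitative HTS format using FXR-UAS-bla HEK 293T reporter cells. Agonist chenodeoxycholic acid, 50 uM final, added with compounds; 16 h incubation at 37 °C; beta-lactamase FRET fluorescence measured.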
# On the % scale 0 is the no-effect control and ±100 the full control effect.
row,SMILES,"activity change, negative = inhibition"
1,CCC(=O)N(c1ccccc1)C1CCNCC1,inactive: -12.1%
2,CCOC(=O)N1CCC(=O)CC1,inactive: 8.01%
3,CCOP(=O)(Cl)Cl,inactive: 1.08%

# Test system: not listed separately
# Assay: qHTS assay to identify small molecule agonists of the farnesoid-X-receptor (FXR) signaling pathway - cell viability counter screen (AID 743218); further: nearly all actives have a fitted effect of over 45% in size
# Conditions: FXR-bla HEK293T viability, CellTiter-Glo luminescence, 16 h; at 62.6 µM (top of the series)
# How it was run: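 Viability of FXR-bla HEK 293T cells is measured by ATP-based CellTiter-Glo luminescence following 16 h compound treatment at 37 C and a prior 2 h room-temperature beta-lactamase substrate step.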
row,SMILES,"viability change, negative = cytotoxic"
1,CCOP(=S)(Cl)OCC,inactive: 20.5%
2,O=[N+]([O-])c1ccccc1[N+](=O)[O-],inactive: 5.42%
3,CCC(=O)N(c1ccccc1)C1CCNCC1,inactive: 1.42%
4,CCOC(=O)N1CCC(=O)CC1,inactive: 18.3%
5,ClCCOP(OCCCl)OCCCl,inactive: 11.3%
6,CCOP(=O)(Cl)Cl,inactive: 25.9%

# Molecular target: Bile acid receptor (Homo sapiens) (UniProt Q96RI1)
# Assay: qHTS assay to identify small molecule agonists of the farnesoid-X-receptor (FXR) signaling pathway (AID 743220; active means well fitted activation curve with a large enough effect in the signal ratio in the repeat runs, not every such curve was filed as active; the % refers to the signal ratio)
# Conditions: HEK293T FXR-UAS-bla, beta-lactamase FRET ratio, 16 h; at 62.6 µM (top of the series)
row,SMILES,activation
1,CCOP(=S)(Cl)OCC,inactive: -4.81%
2,CCC(=O)N(c1ccccc1)C1CCNCC1,inactive: -0.508%
3,CCOC(=O)N1CCC(=O)CC1,inactive: -0.394%
4,CCOP(=O)(Cl)Cl,inactive: 3.02% and inactive: -0.204%

# Test system: not listed separately
# Assay: qHTS assay to identify small molecule antagonists of the farnesoid-X-receptor (FXR) signaling pathway - cell viability counter screen (AID 743221; active means well fitted cell-killing curve with a large enough effect in the repeat runs, not every such curve was filed as active; further: nearly all actives have a fitted effect of over 50% in size)
# Conditions: FXR-bla HEK293T viability, CellTiter-Glo luminescence, 16 h; at 62.6 µM (top of the series)
# How it was run: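 Here viability was scored by luminescence after CellTiter-Glo addition to wells already read for beta-lactamase. Prior treatment: compound plus CDCA (50 uM final), 16 h, 37 C, HEK 293T FXR-bla cells.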
row,SMILES,"activity change, negative = cytotoxicity"
1,CCOP(=S)(Cl)OCC,inactive: -3.32%
2,O=[N+]([O-])c1ccccc1[N+](=O)[O-],inactive: -2.28%
3,CCC(=O)N(c1ccccc1)C1CCNCC1,inactive: 5.72%
4,CCOC(=O)N1CCC(=O)CC1,inactive: 2.1%
5,ClCCOP(OCCCl)OCCCl,inactive: 10.4%
6,CCOP(=O)(Cl)Cl,inactive: -2.23% and inactive: 26.1%

# Molecular target: Vitamin D3 receptor (Homo sapiens) (UniProt P11473)
# Assay: qHTS assay to identify small molecule agonists of the vitamin D receptor (VDR) signaling pathway (AID 743222; calls by dose curve)
# Conditions: HEK293T VDR-UAS-bla, beta-lactamase FRET ratio, 16 h; at 63.5 µM (top of the series)
# How it was run: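 Fluorescence from cleaved LiveBLAzer B/G FRET substrate served as readout. VDR-bla cells had been treated 16 h at 37C with test compounds in DMSO, following a 4 h settling period, and substrate was loaded for 2 h at RT.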
row,SMILES,activation
1,O=[N+]([O-])c1ccccc1[N+](=O)[O-],inactive: -3.21%
2,CCC(=O)N(c1ccccc1)C1CCNCC1,inactive: 9.02%
3,CCOC(=O)N1CCC(=O)CC1,inactive: 11.2%
4,ClCCOP(OCCCl)OCCCl,inactive: 4.4%

# Molecular target: Vitamin D3 receptor (Homo sapiens) (UniProt P11473)
# Assay: qHTS assay to identify small molecule antagonists of the vitamin D receptor (VDR) signaling pathway (AID 743223; active means well fitted inhibition curve with a large enough effect in the signal ratio in the repeat runs, not every such curve was filed as active; the % refers to the signal ratio)
# Conditions: VDR-UAS-bla HEK293T, beta-lactamase FRET ratio, 16 h; at 61 µM (top of the series)
# How it was run: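 Inhibition of agonist-driven VDR signalling is scored in VDR-bla cells: 3 nM final 1alpha,25-dihydroxyvitamin D3 plus compound, 16 h at 37C, then beta-lactamase detection by FRET substrate fluorescence after 2 h.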
row,SMILES,"activity change, negative = inhibition"
1,CCOP(=S)(Cl)OCC,inactive: -23.2%
2,O=[N+]([O-])c1ccccc1[N+](=O)[O-],inactive: 5.49%
3,CCC(=O)N(c1ccccc1)C1CCNCC1,inactive: -10.1%
4,CCOC(=O)N1CCC(=O)CC1,inactive: -4.99%

# Test system: not listed separately
# Assay: qHTS assay to identify small molecule agonists of the vitamin D receptor (VDR) signaling pathway - cell viability counter screen (AID 743224); further: nearly all actives have a fitted effect of over 50% in size
# Conditions: VDR-bla HEK293T viability, CellTiter-Glo luminescence, 16 h; at 62.6 µM (top of the series)
# How it was run: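 Compounds were pin-transferred onto VDR-bla cells plated 4 h earlier; following 16 h incubation at 37C, cell viability was quantified by CellTiter-Glo luminescence after 30 min at room temperature.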
row,SMILES,"activity change, negative = cytotoxicity"
1,CCOP(=S)(Cl)OCC,inactive: -13.4%
2,CCC(=O)N(c1ccccc1)C1CCNCC1,inactive: -0.811%
3,CCOC(=O)N1CCC(=O)CC1,inactive: 15.5%
4,ClCCOP(OCCCl)OCCCl,inactive: 0.326%
5,CCOP(=O)(Cl)Cl,inactive: 3.32% and inactive: -2.53%

# Test system: not listed separately
# Assay: qHTS assay to identify small molecule antagonists of the vitamin D receptor (VDR) signaling pathway - cell viability counter screen (AID 743225); further: nearly all actives have a fitted effect of over 50% in size
# Conditions: VDR-bla HEK293T viability, CellTiter-Glo luminescence, 16 h; at 61 µM (top of the series)
# How it was run: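 Compounds were pinned onto VDR-bla HEK 293T cells together with 1-alpha,25-dihydroxyvitamin D3 at 3 nM final. After 16 h at 37C and 5% CO2 plus the reporter readout, cell viability was measured by CellTiter-Glo luminescence (30 min, room temperature).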
row,SMILES,"viability change, negative = cytotoxic"
1,CCOP(=S)(Cl)OCC,inactive: -3.13%
2,CCC(=O)N(c1ccccc1)C1CCNCC1,inactive: -3.33%
